Test [1] deals with ICAD-degron fusion protein. The settings on record: 4 hours of exposure to 1000 nM lenalidomide, ICAD-degron-T2A-CADp.R11W-FLAG system.
The subject of test [2] is primary human CAR T cells. The experiment in a line: Competitive proliferation assay of suicide switch-transduced versus untransduced cells. The settings on record: with lenalidomide. Format: cell-based. The source says: Cells were stimulated weekly with an equal number of irradiated K562 cells transduced to express CD3 and CD28 scFvs. Flow cytometry was used to enumerate the percentage of mTagBFP2+ cells on days 0, 7, and 14.

The test system of test [3] is Jurkat cells expressing the switch. The experiment in a line: DNA damage assay (gamma-H2AX intracellular flow). Format: cell-based. The settings on record: drug administered overnight. The source says: To determine whether promoter strength modifies ICADdegron-CAD suicide switch efficiency, Jurkat cells were transduced to express the ICAD-degron 2A CAD p.R11W suicide switch was expressed, driven by an EF1alpha or PGK promoter.

Take `Nc1cccc2c1CN(C1CCC(=O)NC1=O)C2=O` (stereo not shown) [lenalidomide]: the “effect on abundance of ICAD-degron fusion protein” value in test [1] is on record as “specifically destabilized the ICAD-degron fusion protein”. In test [2], the “suicide switch T cell proliferation in competition with untransduced cells” value is recorded as “significantly depleted”. Besides, in test [3], the “concentration at which DNA damage sensing was activated” value was determined as 0.1 nM and the “concentration at which DNA damage sensing was fully activated” value is 1 nM.
